Results taken from ChEMBL document CHEMBL4043202, “Synthesis, pH dependent, plasma and enzymatic stability of bergenin prodrugs for potential use against rheumatoid arthritis” (Bioorg Med Chem, 2017).

Assay: Stability in pH 7.4 PBS buffer assessed as compound remaining level at 120 mg/mL incubated for 24 hrs at 37 degC by HPLC method
Settings: pH 7.4, 24 h

**Q.** For COc1c(OC(=O)c2c([N+](=O)[O-])cc([N+](=O)[O-])cc2[N+](=O)[O-])cc2c(c1O)[C@@H]1O[C@H](COC(=O)c3c([N+](=O)[O-])cc([N+](=O)[O-])cc3[N+](=O)[O-])[C@@H](O)[C@H](O)[C@H]1OC2=O, which Stability is on record?
**A.** Its Stability is 32.3%.
